Experimental data as given in patent US8959984B2, “Proteome-wide quantification of small molecule binding to cellular target proteins” (priority 2007, dated 2015).

Protein sequences, listed by entry. Tags and fused reporters are not part of them. Lines headed by an entry give the natural chain unless they say otherwise; changes in a name come on top. Residues count along the entry.
UniProt P11362, 22-822: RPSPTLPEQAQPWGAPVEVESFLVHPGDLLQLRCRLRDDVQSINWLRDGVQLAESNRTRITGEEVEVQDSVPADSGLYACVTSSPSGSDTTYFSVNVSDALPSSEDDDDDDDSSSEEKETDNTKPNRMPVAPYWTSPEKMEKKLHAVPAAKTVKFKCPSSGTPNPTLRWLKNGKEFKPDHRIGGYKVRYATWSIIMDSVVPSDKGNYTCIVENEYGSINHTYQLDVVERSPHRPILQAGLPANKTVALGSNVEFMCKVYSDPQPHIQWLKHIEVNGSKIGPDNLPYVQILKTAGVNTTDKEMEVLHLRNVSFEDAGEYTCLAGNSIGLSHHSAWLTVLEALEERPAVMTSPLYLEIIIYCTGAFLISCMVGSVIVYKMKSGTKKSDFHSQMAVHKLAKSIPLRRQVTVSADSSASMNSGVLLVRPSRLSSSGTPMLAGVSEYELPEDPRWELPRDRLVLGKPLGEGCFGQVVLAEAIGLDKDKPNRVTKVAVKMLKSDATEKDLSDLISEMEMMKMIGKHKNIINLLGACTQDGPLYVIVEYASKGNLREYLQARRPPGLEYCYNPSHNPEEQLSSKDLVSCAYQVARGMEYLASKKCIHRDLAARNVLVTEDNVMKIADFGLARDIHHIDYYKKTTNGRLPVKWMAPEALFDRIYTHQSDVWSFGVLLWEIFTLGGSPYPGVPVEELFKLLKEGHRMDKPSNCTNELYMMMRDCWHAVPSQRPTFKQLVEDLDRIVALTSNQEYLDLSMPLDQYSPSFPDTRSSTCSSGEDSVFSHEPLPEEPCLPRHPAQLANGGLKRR
UniProt O75460, 19-977: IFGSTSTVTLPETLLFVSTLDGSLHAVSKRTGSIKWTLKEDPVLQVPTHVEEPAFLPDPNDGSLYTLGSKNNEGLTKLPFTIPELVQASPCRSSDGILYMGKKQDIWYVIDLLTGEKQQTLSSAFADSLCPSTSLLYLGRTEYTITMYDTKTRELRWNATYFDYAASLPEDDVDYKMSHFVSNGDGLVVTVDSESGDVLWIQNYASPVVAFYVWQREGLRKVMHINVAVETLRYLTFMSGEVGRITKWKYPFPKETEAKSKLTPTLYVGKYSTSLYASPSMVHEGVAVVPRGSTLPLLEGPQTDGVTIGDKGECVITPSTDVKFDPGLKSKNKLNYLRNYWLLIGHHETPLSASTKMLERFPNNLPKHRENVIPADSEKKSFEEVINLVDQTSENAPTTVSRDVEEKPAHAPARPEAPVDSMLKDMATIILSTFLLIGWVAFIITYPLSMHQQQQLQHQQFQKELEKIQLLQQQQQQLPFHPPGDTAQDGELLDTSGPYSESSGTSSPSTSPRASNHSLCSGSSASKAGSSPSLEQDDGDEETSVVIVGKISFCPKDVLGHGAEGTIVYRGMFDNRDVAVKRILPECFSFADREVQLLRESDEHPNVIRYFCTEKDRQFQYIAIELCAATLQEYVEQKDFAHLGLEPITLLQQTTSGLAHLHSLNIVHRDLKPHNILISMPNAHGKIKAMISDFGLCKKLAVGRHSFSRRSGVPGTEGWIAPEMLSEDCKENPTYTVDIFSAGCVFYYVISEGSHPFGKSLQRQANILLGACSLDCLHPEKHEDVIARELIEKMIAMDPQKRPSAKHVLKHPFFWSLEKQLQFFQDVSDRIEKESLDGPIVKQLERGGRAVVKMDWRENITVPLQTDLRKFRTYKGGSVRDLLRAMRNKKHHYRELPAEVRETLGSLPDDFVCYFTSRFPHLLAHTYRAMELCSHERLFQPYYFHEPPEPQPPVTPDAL
UniProt P49760, whole entry: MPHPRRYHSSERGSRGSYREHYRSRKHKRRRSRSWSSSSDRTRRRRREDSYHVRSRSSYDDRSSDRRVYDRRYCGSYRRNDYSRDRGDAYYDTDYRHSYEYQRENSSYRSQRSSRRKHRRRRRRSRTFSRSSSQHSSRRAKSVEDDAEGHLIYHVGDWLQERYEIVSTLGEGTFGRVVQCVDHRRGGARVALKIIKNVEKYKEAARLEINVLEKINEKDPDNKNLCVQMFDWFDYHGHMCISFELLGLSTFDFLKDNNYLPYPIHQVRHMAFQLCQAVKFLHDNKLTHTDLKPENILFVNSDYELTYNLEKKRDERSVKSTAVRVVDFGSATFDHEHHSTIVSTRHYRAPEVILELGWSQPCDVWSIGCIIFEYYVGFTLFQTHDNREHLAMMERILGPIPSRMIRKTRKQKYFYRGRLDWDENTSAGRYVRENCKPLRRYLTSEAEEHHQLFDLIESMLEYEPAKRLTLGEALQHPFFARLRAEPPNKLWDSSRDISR
UniProt Q2M2I8: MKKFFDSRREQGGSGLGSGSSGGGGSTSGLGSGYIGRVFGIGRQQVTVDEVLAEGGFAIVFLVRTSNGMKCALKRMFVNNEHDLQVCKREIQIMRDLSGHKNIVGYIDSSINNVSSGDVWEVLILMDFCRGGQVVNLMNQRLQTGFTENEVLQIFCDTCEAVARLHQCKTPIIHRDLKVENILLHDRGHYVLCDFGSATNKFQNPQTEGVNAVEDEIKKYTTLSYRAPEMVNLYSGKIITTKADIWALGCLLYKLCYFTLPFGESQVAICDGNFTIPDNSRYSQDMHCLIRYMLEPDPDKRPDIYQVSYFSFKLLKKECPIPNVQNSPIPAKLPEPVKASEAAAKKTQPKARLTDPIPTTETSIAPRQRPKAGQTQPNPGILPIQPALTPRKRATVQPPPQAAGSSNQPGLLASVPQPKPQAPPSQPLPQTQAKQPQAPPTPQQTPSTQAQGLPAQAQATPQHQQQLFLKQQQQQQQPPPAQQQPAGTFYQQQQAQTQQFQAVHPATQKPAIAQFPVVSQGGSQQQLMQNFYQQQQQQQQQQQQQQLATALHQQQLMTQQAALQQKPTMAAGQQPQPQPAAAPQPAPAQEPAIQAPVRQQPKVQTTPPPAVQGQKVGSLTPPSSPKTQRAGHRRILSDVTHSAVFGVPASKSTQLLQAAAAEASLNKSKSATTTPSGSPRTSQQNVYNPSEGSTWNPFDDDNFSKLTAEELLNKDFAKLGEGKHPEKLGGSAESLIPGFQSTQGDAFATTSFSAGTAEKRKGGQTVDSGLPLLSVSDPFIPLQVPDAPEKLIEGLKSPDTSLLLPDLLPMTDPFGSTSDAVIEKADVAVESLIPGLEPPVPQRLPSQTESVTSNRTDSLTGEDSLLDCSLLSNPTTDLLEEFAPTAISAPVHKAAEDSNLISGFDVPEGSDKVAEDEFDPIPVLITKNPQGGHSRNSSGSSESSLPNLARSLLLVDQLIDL
UniProt Q04917: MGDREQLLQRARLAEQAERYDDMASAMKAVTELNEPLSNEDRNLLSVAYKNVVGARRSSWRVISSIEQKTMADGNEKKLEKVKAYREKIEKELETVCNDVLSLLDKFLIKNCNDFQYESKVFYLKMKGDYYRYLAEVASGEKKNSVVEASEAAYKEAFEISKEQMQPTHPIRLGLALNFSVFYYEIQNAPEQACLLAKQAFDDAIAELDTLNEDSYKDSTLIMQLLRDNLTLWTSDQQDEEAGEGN
UniProt Q9Y233: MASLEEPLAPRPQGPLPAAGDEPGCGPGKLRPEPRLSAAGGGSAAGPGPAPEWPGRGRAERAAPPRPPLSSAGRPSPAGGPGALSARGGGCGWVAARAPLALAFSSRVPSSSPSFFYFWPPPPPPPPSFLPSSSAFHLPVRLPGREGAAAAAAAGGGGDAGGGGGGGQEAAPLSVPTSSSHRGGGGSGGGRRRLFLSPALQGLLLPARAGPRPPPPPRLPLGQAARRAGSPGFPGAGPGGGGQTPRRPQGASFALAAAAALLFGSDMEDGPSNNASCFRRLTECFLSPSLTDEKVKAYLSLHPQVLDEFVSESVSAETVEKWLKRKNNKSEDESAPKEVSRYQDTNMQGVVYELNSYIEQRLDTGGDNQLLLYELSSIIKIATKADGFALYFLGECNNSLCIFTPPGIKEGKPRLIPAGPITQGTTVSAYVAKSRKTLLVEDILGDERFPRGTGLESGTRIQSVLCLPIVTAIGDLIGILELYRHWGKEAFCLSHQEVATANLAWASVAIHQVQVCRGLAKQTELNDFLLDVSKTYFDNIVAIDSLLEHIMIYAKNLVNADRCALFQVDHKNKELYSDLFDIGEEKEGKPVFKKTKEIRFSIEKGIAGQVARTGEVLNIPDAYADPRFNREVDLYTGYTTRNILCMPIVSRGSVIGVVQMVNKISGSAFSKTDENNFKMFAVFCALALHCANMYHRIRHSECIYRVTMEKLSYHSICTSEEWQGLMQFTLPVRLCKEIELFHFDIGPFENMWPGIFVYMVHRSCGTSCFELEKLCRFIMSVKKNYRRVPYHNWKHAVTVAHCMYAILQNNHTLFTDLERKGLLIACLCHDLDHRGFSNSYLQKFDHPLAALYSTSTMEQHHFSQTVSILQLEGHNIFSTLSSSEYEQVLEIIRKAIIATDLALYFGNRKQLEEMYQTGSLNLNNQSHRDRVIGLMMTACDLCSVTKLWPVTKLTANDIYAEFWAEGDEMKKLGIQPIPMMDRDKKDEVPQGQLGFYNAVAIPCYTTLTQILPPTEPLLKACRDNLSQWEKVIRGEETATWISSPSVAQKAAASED
UniProt P31946: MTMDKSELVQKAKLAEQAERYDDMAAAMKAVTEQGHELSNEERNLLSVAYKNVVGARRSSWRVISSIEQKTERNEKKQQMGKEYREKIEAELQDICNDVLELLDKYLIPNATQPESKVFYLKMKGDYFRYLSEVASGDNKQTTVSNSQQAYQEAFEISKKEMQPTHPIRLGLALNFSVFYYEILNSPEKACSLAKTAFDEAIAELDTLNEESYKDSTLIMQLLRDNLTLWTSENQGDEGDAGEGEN
UniProt Q9P289: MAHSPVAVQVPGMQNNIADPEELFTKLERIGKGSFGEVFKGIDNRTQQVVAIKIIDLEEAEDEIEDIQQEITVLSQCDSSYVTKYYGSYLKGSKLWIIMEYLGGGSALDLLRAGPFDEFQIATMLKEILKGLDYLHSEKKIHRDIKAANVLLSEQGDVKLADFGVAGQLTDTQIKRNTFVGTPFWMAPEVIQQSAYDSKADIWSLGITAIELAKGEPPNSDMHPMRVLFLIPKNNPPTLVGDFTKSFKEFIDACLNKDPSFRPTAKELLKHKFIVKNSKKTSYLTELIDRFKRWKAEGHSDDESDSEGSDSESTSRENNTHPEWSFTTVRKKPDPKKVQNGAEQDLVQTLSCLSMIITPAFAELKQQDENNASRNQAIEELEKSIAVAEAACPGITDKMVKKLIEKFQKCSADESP
UniProt P49841: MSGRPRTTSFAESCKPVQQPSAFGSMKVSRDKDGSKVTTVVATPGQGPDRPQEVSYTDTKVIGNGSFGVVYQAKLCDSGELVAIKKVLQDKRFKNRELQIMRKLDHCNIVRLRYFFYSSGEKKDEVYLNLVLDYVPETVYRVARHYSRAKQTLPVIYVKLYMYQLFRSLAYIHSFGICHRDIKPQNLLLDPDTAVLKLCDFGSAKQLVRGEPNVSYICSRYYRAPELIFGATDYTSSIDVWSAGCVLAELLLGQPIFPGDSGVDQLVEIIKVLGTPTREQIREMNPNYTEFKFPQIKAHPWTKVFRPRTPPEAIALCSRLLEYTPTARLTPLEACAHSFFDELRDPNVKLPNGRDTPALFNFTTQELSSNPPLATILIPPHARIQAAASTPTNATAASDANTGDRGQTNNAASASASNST

What was measured:
Assay in all cases: Ki determination for immobilized VI16742: two consecutive incubations, control beads, ligand concentration and incubation time controls (Tables 7, 8)
Assay type in all cases: binding
[1] = molecular target: cellular target proteins in HeLa cell lysate (Homo sapiens, UniProt P11362); conditions: Ki (VI16742), FGFR1 IPI00005142
[2] = molecular target: T1, cellular target proteins in HeLa cell lysate (Homo sapiens, UniProt Q13011); conditions: Ki (VI16742), ECH1 IPI00011416
T1 sequence (Q13011 34-328): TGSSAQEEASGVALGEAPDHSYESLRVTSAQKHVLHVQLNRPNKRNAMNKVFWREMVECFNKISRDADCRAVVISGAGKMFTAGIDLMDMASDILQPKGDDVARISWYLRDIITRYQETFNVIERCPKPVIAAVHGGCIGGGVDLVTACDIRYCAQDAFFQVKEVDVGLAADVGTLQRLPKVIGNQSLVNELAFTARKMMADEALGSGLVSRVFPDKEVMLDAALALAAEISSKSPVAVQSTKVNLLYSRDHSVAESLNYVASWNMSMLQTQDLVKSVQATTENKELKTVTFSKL

[3] = molecular target: cellular target proteins in HeLa cell lysate (Homo sapiens, UniProt O75460); conditions: Ki (VI16742), IRE1 IPI00873141
[4] = molecular target: T2, cellular target proteins in HeLa cell lysate (Homo sapiens, UniProt P62258); conditions: Ki (VI16742), YWHAE IPI00000816
T2 sequence (P62258 1-255): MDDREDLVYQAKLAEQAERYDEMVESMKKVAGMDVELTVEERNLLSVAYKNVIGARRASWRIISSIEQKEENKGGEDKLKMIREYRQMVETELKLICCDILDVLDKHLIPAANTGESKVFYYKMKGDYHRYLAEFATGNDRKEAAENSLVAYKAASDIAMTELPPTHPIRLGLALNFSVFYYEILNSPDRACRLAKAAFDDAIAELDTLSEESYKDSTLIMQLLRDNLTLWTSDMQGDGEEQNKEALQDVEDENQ

[5] = molecular target: T3, cellular target proteins in HeLa cell lysate (Homo sapiens, UniProt P31947); conditions: Ki (VI16742), SFN IPI00013890
T3 sequence (P31947 1-248): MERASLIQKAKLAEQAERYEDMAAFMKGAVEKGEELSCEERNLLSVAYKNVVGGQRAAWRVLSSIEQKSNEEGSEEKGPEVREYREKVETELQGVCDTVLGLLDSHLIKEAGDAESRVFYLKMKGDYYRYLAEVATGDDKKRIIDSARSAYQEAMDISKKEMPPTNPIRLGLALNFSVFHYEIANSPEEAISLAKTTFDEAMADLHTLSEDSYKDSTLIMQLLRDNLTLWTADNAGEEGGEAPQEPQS

[6] = molecular target: cellular target proteins in HeLa cell lysate (Homo sapiens, UniProt P49760); conditions: Ki (VI16742), CLK2 IPI00028071
[7] = molecular target: cellular target proteins in HeLa cell lysate (Homo sapiens, UniProt Q2M2I8); conditions: Ki (VI16742), AAK1 IPI00479760
[8] = molecular target: cellular target proteins in HeLa cell lysate (Homo sapiens, UniProt Q04917); conditions: Ki (VI16742), YWHAH IPI00216319
[9] = molecular target: cellular target proteins in HeLa cell lysate (Homo sapiens, UniProt Q9Y233); conditions: Ki (VI16742), PDE10A IPI00215786
[10] = molecular target: cellular target proteins in HeLa cell lysate (Homo sapiens, UniProt P31946); conditions: Ki (VI16742), YWHAB IPI00216318
[11] = molecular target: cellular target proteins in HeLa cell lysate (Homo sapiens, UniProt Q9P289); conditions: Ki (VI16742), MST4 IPI00292827
[12] = molecular target: cellular target proteins in HeLa cell lysate (Homo sapiens, UniProt Q460N5); conditions: Ki (VI16742), PARP14 IPI00291215
[13] = molecular target: cellular target proteins in HeLa cell lysate (Homo sapiens, UniProt P49841); conditions: Ki (VI16742), GSK3B IPI00216190

CC(C)n1c(=O)ccc2cnc(Nc3ccc(OCCN)cc3)nc21 [V16742]
Ki [1]: 23.2 µM | Ki [2]: 7.17 µM | Ki [3]: 66.7 µM | Ki [4]: 28.2 µM | Ki [5]: 33.2 µM | Ki [6]: 6.31 µM | Ki [7]: 7.18 µM | Ki [8]: 28.9 µM | Ki [9]: 2.58 µM | Ki [10]: 31.3 µM | Ki [11]: 73.3 µM | Ki [12]: 42.5 µM | Ki [13]: 5.21 µM
